Values quoted from earlier work as cited in publication PMC5986796.

The chains behind the UniProt entries cited, without tags or fusion partners. Residues count along the entry.
UniProt P19235, 25-250: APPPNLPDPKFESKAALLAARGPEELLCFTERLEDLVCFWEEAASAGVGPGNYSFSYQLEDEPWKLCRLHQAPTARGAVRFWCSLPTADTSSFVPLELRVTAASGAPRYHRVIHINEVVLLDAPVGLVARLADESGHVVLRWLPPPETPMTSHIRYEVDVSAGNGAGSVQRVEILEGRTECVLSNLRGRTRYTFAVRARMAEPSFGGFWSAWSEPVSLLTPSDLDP

Molecular target: Erythropoietin receptor (site 1) (Homo sapiens) (UniProt P19235)

Kd: 1 nM
Substance: Erythropoietin (from UniProt P01588)
